## scFv variants of Ab-91 (heavy chain) against a SARS-CoV-2 spike peptide

From the AlphaSeq antibody data of Engelhart et al. 2022 (doi:10.1038/s41597-022-01779-4), copy in the FLAb collection.

Target peptide (SARS-CoV-2 spike, HR2 region): PDVDLGDISGINAS

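The parent was found by panning a naive human phage display library on the peptide. The library (AAYL51) carries one to three amino acid substitutions per variant, with no insertions or deletions. Affinity was read by AlphaSeq, a pooled yeast mating assay with surface-displayed partners. Pairs that bind mate more often; barcode pairs of the diploids are counted by sequencing. A regression on co-assayed BCL2-family reference pairs converts the normalised counts of each replicate to an apparent Kd. There are three technical replicates.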

Parent scFv Ab-91: VL joined to VH by a 15-residue (Gly4Ser)3 linker. Changes lie in the heavy chain CDRs alone.
VL: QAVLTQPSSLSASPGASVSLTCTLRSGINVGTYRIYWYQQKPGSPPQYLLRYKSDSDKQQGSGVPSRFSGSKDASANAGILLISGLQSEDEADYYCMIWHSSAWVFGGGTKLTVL
VH: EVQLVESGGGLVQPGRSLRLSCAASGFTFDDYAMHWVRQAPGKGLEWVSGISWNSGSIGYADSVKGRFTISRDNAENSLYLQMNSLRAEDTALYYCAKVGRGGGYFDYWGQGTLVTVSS

The parent's heavy chain CDRs are GFTFDDYAMH, GISWNSGSIGYADSVK, VGRGGGYFDY; each variant's own CDRs replace them letter for letter.
Affinities are written as log10 Kd with Kd in nM; a lower number is a better binder.
Replicates are averaged; those with no signal do not enter the mean.
A pair that was not seen in that replicate is written "ND"; this usually means weak binding, but a binder can also be missed.
For reference, the parent read 1.86 as the reference entry and 0.88 as a member of this library.
Empty control strains, which show no peptide, gave a signal in 21% of pairings with library AAYL51; the median was 4.54 and 95% of these signals were weaker than 3.26. No background was subtracted. Also given: how often the same scFv was detected with the empty control strains, with their mean in brackets.

{"CDR-H1": "GFTFDDYAMH", "CDR-H2": "GISANSGSIGYATSVK", "CDR-H3": "VGRGGWYFDY", "log10 Kd, replicates": "1.01 0.93 0.43", "mean log10 Kd (nM)": "0.79", "empty controls": "1/9 (4.81)"}
{"CDR-H1": "GFSFDDYAMV", "CDR-H2": "GISWNSGSIGYADSVM", "CDR-H3": "VGRGGGYFDY", "log10 Kd, replicates": "3.44 ND ND", "mean log10 Kd (nM)": "3.44", "empty controls": "0/9"}
{"CDR-H1": "GFTFDDYAMH", "CDR-H2": "GISWNSGSIGYASSVK", "CDR-H3": "VGRGHGYFWY", "log10 Kd, replicates": "5.35 ND 4.87", "mean log10 Kd (nM)": "5.11", "empty controls": "5/9 (4.88)"}
{"CDR-H1": "GFTFDDYAMH", "CDR-H2": "GFSWNSGSIGYADSVK", "CDR-H3": "CGRGGEYFDY", "log10 Kd, replicates": "ND ND ND", "mean log10 Kd (nM)": "ND", "empty controls": "0/9"}
{"CDR-H1": "GFTNVDYAMH", "CDR-H2": "GISWNSGSIGYADSVK", "CDR-H3": "EGRGGGYFDY", "log10 Kd, replicates": "ND 5.68 ND", "mean log10 Kd (nM)": "5.68", "empty controls": "4/9 (4.11)"}
{"CDR-H1": "GHTFDDYAMH", "CDR-H2": "GISWNSGAIGYADSVK", "CDR-H3": "VYRGGGYFDY", "log10 Kd, replicates": "ND 4.51 ND", "mean log10 Kd (nM)": "4.51", "empty controls": "0/9"}
{"CDR-H1": "GFTFDDYAMH", "CDR-H2": "RISWNSGSIKYADSVK", "CDR-H3": "VGRGGGYFHY", "log10 Kd, replicates": "4.04 3.95 ND", "mean log10 Kd (nM)": "3.99", "empty controls": "1/9 (3.95)"}
{"CDR-H1": "GFRFQDYAMH", "CDR-H2": "GISWNSGSIGYADSVK", "CDR-H3": "VWRGGGYFDY", "log10 Kd, replicates": "ND 1.21 ND", "mean log10 Kd (nM)": "1.21", "empty controls": "0/9"}
{"CDR-H1": "GFFFDDYAMH", "CDR-H2": "GISWNSGSIGYAHSVK", "CDR-H3": "VGRGGGAFDY", "log10 Kd, replicates": "4.57 4.85 4.33", "mean log10 Kd (nM)": "4.59", "empty controls": "1/9 (4.68)"}
{"CDR-H1": "GFTFDDYAMH", "CDR-H2": "GISWNSGKIGYADSVG", "CDR-H3": "VQRGGGYFDY", "log10 Kd, replicates": "ND 5.07 ND", "mean log10 Kd (nM)": "5.07", "empty controls": "3/9 (3.87)"}
{"CDR-H1": "GFTFDDDAMH", "CDR-H2": "GGSWNSGSIGYADSVK", "CDR-H3": "VGRGGGYFDS", "log10 Kd, replicates": "ND ND ND", "mean log10 Kd (nM)": "ND", "empty controls": "1/9 (3.01)"}
{"CDR-H1": "GFTFDDHAMH", "CDR-H2": "GISWNSGSIGYADSVK", "CDR-H3": "VGHGKGYFDY", "log10 Kd, replicates": "5.73 ND ND", "mean log10 Kd (nM)": "5.73", "empty controls": "7/9 (4.51)"}
{"CDR-H1": "GFTFDDYAMH", "CDR-H2": "GISWNFNSIGYADSVK", "CDR-H3": "VGRGGGYFFY", "log10 Kd, replicates": "ND ND ND", "mean log10 Kd (nM)": "ND", "empty controls": "0/9"}
{"CDR-H1": "GITFDDYAMH", "CDR-H2": "GISWNSGSIGYADSVK", "CDR-H3": "CGRGGGYFDT", "log10 Kd, replicates": "ND 3.81 ND", "mean log10 Kd (nM)": "3.81", "empty controls": "0/9"}
{"CDR-H1": "GFTFLDYAMH", "CDR-H2": "GISWNSGSIGYADSVK", "CDR-H3": "CGNGGGYFDY", "log10 Kd, replicates": "5.43 ND ND", "mean log10 Kd (nM)": "5.43", "empty controls": "1/9 (4.97)"}
{"CDR-H1": "GFLFDDTAMH", "CDR-H2": "GISWNSGSIGYAESVK", "CDR-H3": "VGRGGGYFDY", "log10 Kd, replicates": "2.80 2.82 2.51", "mean log10 Kd (nM)": "2.71", "empty controls": "5/9 (4.23)"}
{"CDR-H1": "GFTFDDDAMH", "CDR-H2": "GISWNSGSIGYADSVK", "CDR-H3": "DGRGGGYFDW", "log10 Kd, replicates": "ND ND ND", "mean log10 Kd (nM)": "ND", "empty controls": "1/9 (2.66)"}
{"CDR-H1": "GFTFIDYDMH", "CDR-H2": "GCSWNSGSIGYADSVK", "CDR-H3": "VGRGGGYFDY", "log10 Kd, replicates": "ND ND ND", "mean log10 Kd (nM)": "ND", "empty controls": "2/9 (4.03)"}
{"CDR-H1": "GFTFDDVAMH", "CDR-H2": "GISWNSGSIGVADSVK", "CDR-H3": "VGRGGGYNDY", "log10 Kd, replicates": "2.98 3.01 2.72", "mean log10 Kd (nM)": "2.90", "empty controls": "3/9 (4.15)"}
{"CDR-H1": "GFTFDDDAMH", "CDR-H2": "GISWNSGSIGYADSVK", "CDR-H3": "VGRGGGYIDY", "log10 Kd, replicates": "ND 4.22 ND", "mean log10 Kd (nM)": "4.22", "empty controls": "1/9 (3.52)"}
{"CDR-H1": "GFTFDDYAMH", "CDR-H2": "GISWNSGSIGIADSVK", "CDR-H3": "VGYGGGYFDY", "log10 Kd, replicates": "2.99 3.87 ND", "mean log10 Kd (nM)": "3.43", "empty controls": "4/9 (4.04)"}
{"CDR-H1": "GRTFDDYAMH", "CDR-H2": "GISWNSGFIGYADSVK", "CDR-H3": "VTRGGGYFDY", "log10 Kd, replicates": "ND ND ND", "mean log10 Kd (nM)": "ND", "empty controls": "2/9 (4.81)"}
{"CDR-H1": "GFTFDDYAMH", "CDR-H2": "GISWNSGSICYADSVK", "CDR-H3": "VGRGGGYFDQ", "log10 Kd, replicates": "4.98 5.99 3.87", "mean log10 Kd (nM)": "4.95", "empty controls": "8/9 (4.86)"}
{"CDR-H1": "GFPFDDYAMH", "CDR-H2": "GISWLSGSIGYAQSVK", "CDR-H3": "VGRGGGYFDY", "log10 Kd, replicates": "4.60 ND ND", "mean log10 Kd (nM)": "4.60", "empty controls": "0/9"}
{"CDR-H1": "GFTFDDYAMH", "CDR-H2": "GISWNSGSPGYADSVK", "CDR-H3": "PGRGGGYFDY", "log10 Kd, replicates": "4.01 ND ND", "mean log10 Kd (nM)": "4.01", "empty controls": "4/9 (4.13)"}
{"CDR-H1": "GFAFDDYYMH", "CDR-H2": "GISWNSGSIGYADSVK", "CDR-H3": "VGRGGGYFDF", "log10 Kd, replicates": "2.71 3.15 2.78", "mean log10 Kd (nM)": "2.88", "empty controls": "1/9 (4.29)"}
{"CDR-H1": "GFTCDDYAMH", "CDR-H2": "GMSWNSGSIGYADSLK", "CDR-H3": "VGRGGGYFDY", "log10 Kd, replicates": "4.71 5.86 ND", "mean log10 Kd (nM)": "5.28", "empty controls": "2/9 (5.48)"}
{"CDR-H1": "GFTFSDYAMH", "CDR-H2": "GISWNSGSIGYADSMS", "CDR-H3": "VGRGGGYFDY", "log10 Kd, replicates": "0.80 0.83 0.41", "mean log10 Kd (nM)": "0.68", "empty controls": "7/9 (4.89)"}

A selection of 3 entries from above:

| CDR-H1 | CDR-H2 | CDR-H3 | log10 Kd, replicates | mean log10 Kd (nM) | empty controls |
|---|---|---|---|---|---|
| GFTFDDDAMH | GISWNSGSIGYADSVK | DGRGGGYFDW | ND ND ND | ND | 1/9 (2.66) |
| GFTFDDHAMH | GISWNSGSIGYADSVK | VGHGKGYFDY | 5.73 ND ND | 5.73 | 7/9 (4.51) |
| GFTFDDYAMH | GISWNSGSIGIADSVK | VGYGGGYFDY | 2.99 3.87 ND | 3.43 | 4/9 (4.04) |